The record followed here is US11096942B2, “Heterocyclic compounds and uses thereof” (Celgene CAR LLC, priority 2010, dated 2021).

The target in the assay is EGFR T790M/L858R (Homo sapiens (Human), UniProt P00533, L858R/T790M). Briefly: Omnia assay, EGFR (T790M/L858R) active enzyme. The note with it: biochemical, WT EGFR vs EGFR T790M/L858R.
Turning to `C=CC(=O)Nc1cccc(Nc2nc(Nc3ccc(N4CCOCC4)cc3OC(F)F)ncc2C(F)(F)F)c1` [Compound I-14, N-(3-(2-(2-(difluoromethoxy)-4-morpholinophenylamino)-5-(trifluoromethyl)pyrimidin-4-ylamino)phenyl)acrlamide], the “Ratio WT/mutant” value is on record as more than 25.
In the case of `C=CC(=O)Nc1cccc(Nc2nc(Nc3ccc(N4CCOCC4)cc3OC)ncc2Cl)c1` [Compound I-15, N-(3-(5-chloro-2-(2-methoxy-4-morpholinophenylamino)pyrimidin-4-ylamino)phenyl)acrylamide] it was more than 15; in that of `C=CC(=O)Nc1cccc(Oc2nc(Nc3ccc(N4CCN(C(=O)NC)CC4)cc3OC)ncc2C(F)(F)F)c1` [Compound I-21, 4-(4-(4-(3-acrylamidophenoxy)-5-(trifluoromethyl)pyrimidin-2-ylamino)-3-methoxyphenyl)-N-methylpiperazine-1-carboxamide], more than 35; in that of `C=CC(=O)Nc1cccc(Oc2nc(Nc3ccc(N4CCN(S(C)(=O)=O)CC4)cc3OC)ncc2C(F)(F)F)c1` [Compound I-22, N-(3-(2-(2-methoxy-4-(4-(methylsulfonyl)piperazin-1-yl)phenylamino)-5-(trifluoromethyl)pyrimidin-4-yloxy)phenyl)acrylamide], more than 50.
Turning to `C=CC(=O)Nc1cccc(Oc2nc(Nc3ccc(N4CCN(C(=O)CC(C)(C)C)CC4)cc3OC)ncc2Cl)c1` [Compound I-23, N-(3-(5-chloro-2-(4-(4-(3,3-dimethylbutanoyl)piperazin-1-yl)-2-methoxyphenylamino)pyrimidin-4-yloxy)phenyl)acrylamide], the “Ratio WT/mutant” value was more than 25.
In the case of `C=CC(=O)Nc1cccc(Oc2nc(Nc3ccc(N4CCN(S(C)(=O)=O)CC4)cc3OC)ncc2Cl)c1` [Compound I-26, N-(3-(5-chloro-2-(2-methoxy-4-(4-(methylsulfonyl)piperazin-1-yl)phenylamino)pyrimidin-4-yloxy)phenyl)acrylamide] it was more than 25; in that of `C=CC(=O)Nc1cccc(Nc2nc(Nc3ccc(N4CCN(C(=O)NC)CC4)cc3OC)ncc2C(F)(F)F)c1` [Compound I-28, 4-(4-(4-(3-acrylamidophenylamino)-5-(trifluoromethyl)pyrimidin-2-ylamino)-3-methoxyphenyl)-N-methylpiperazine-1-carboxamide], more than 10.
In the case of `C=CC(=O)Nc1cccc(Nc2nc(Nc3ccc(N4CCN(C(=O)CO)CC4)cc3OC(F)F)ncc2C(F)(F)F)c1` [Compound I-31, N-(3-(2-(2-(difluoromethoxy)-4-(4-(2-hydroxyacetyl)piperazin-1-yl)phenylamino)-5-(trifluoromethyl)pyrimidin-4-ylamino)phenyl)acrylamide] it was 1; in that of `C=CC(=O)Nc1cccc(Nc2nc(Nc3ccc(N4CCN(C(C)=O)CC4)cc3OC(F)F)ncc2C(F)(F)F)c1` [Compound I-32, N-(3-(2-(4-(4-acetylpiperazin-1-yl)-2-(difluoromethoxy)phenylamino)-5-(trifluoromethyl)pyrimidin-4-ylamino)phenyl)acrylamide], more than 1; in that of `C=CC(=O)Nc1cccc(Oc2nc(Nc3ccc(N4CCOCC4)cc3OC(F)F)ncc2Cl)c1` [Compound I-36, N-(3-(5-chloro-2-(2-(difluoromethoxy)-4-morpholinophenylamino)pyrimidin-4-yloxy)phenyl)acrylamide], more than 25.
With `C=CC(=O)Nc1cccc(Oc2nc(Nc3ccc(N4CCCOCC4)cc3OC)ncc2Cl)c1` [Compound I-37, N-(3-(5-chloro-2-(2-methoxy-4-(1,4-oxazepan-4-yl)phenylamino)pyrimidin-4-yloxy)phenyl)acrylamide], the “Ratio WT/mutant” value was more than 25.
Under `C=CC(=O)Nc1cccc(Nc2nc(Nc3ccc(N4CCCOCC4)cc3OC)ncc2C(F)(F)F)c1` [Compound I-38, N-(3-(2-(2-methoxy-4-(1,4-oxazepan-4-yl)phenylamino)-5-(trifluoromethyl)pyrimidin-4-ylamino)phenyl)acrylamide] stands more than 50.
In the case of `C=CC(=O)Nc1cccc(Nc2nc(Nc3ccc(N4CCN(C(C)=O)CC4)cc3OC)ncc2Br)c1` [Compound I-40, N-(3-(2-(4-(4-acetylpiperazin-1-yl)-2-methoxyphenylamino)-5-bromopyrimidin-4-ylamino)phenyl)acrylamide] it was more than 20; in that of `C=CC(=O)Nc1cccc(Nc2nc(Nc3ccc(N4CCCN(C(=O)OC(C)(C)C)CC4)cc3OC)ncc2C(F)(F)F)c1` [Compound I-44, tert-butyl 4-(4-(4-(3-acrylamidophenylamino)-5-(trifluoromethyl)pyrimidin-2-ylamino)-3-methoxyphenyl)-1,4-diazpane-1-carboxylate], more than 50; in that of `C=CC(=O)Nc1cccc(Oc2nc(Nc3ccc(N4CCN(C(=O)OC(C)(C)C)CC4)cc3OC(F)(F)F)ncc2Cl)c1` [Compound I-47, tert-butyl 4-(4-(4-(3-acrylamidophenoxy)-5-chloropyrimidin-2-ylamino)-3-(trifluoromethoxy)phenyl)piperazine-1-carboxylate], more than 50.
